Assay results as given in ChEMBL document CHEMBL4359929, “Piperidine and piperazine inhibitors of fatty acid amide hydrolase targeting excitotoxic pathology” (Bioorg Med Chem, 2019).

Sequences of proteins named here, by UniProt entry; tags and fusion partners are left off. A change or cut given only in a name is not applied to a line headed by its entry.
UniProt P20272, whole entry, looked up: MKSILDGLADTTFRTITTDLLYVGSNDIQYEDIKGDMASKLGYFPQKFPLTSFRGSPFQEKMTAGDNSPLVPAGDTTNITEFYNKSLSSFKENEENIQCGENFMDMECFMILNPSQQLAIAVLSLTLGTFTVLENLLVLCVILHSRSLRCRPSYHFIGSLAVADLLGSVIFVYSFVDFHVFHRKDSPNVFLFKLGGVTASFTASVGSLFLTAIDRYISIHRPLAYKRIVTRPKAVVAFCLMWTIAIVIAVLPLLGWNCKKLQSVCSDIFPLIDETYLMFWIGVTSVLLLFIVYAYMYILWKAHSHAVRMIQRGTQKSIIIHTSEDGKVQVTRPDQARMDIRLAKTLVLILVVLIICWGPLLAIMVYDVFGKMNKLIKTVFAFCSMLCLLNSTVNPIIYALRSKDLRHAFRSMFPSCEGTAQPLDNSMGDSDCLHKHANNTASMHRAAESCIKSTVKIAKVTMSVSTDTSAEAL
UniProt P47936: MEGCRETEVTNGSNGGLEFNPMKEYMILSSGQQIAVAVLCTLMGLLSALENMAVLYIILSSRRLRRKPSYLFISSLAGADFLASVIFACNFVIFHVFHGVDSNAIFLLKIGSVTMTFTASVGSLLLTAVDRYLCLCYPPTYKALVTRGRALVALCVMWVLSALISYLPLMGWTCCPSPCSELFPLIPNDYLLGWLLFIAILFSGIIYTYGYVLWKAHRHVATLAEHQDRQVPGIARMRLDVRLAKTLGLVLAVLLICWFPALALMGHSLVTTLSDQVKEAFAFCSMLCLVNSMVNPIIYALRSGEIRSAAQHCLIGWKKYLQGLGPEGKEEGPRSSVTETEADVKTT
UniProt P34972, whole entry, looked up: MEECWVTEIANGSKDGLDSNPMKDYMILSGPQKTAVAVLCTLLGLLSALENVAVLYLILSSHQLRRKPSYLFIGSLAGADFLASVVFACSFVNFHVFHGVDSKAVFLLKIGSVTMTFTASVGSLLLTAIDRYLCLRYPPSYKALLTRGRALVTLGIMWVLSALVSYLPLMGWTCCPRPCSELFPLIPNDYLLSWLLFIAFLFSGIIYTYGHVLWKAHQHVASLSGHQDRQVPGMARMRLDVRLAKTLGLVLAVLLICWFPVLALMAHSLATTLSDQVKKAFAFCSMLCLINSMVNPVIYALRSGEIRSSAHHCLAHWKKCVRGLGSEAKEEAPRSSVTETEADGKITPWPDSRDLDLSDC

Tests used:
[1] = target: T1, Cannabinoid receptor 2 (Rattus norvegicus) (UniProt Q9QZN9); assay: Displacement of [3H]CP55940 from CB2 receptor in rat brain by competition-equilibrium binding analysis; type: tissue-based
T1 sequence (whole entry): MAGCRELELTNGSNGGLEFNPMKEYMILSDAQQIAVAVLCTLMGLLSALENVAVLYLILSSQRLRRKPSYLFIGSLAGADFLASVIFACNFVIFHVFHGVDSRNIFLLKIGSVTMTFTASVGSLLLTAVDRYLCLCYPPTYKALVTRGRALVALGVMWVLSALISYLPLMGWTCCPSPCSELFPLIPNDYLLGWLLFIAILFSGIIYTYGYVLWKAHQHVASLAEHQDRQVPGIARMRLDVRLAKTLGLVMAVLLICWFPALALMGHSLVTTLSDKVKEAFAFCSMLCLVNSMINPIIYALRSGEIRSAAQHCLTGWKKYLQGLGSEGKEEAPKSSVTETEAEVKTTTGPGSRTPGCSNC

[2] = target: Cannabinoid receptor 1 (Rattus norvegicus) (UniProt P20272); assay: Displacement of [3H]CP55940 from CB1 receptor in rat brain by competition-equilibrium binding analysis; type: tissue-based
Procedure, shortened: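 Rat brain membranes as CB1 source; competition-equilibrium binding against [3H]CP-55,940.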

[3] = target: Cannabinoid receptor 2 (Mus musculus) (UniProt P47936); assay: Displacement of [3H]CP55940 from mouse CB2 receptor expressed in HEK293 cells by competition-equilibrium binding analysis; type: cell-based
Procedure, shortened: (§1)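 HEK293 cell membranes expressing mouse or human CB2; competition-equilibrium binding against [3H]CP-55,940.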

[4] = target: Cannabinoid receptor 2 (Homo sapiens) (UniProt P34972); assay: Displacement of [3H]CP55940 from human CB2 receptor expressed in HEK293 cells by competition-equilibrium binding analysis; type: cell-based; procedure, shortened: as §1

Measured: Activity

O=C(Oc1cncc(N2CCS(=O)(=O)CC2)c1)N1CCC(c2ccc(F)cc2)CC1
inactive: all assays above

The source made the active and inactive calls.
